This note sets out measurements from patent US12552790B2, “Positive modulators of the muscarinic acetylcholine receptor M4” (Vanderbilt University, priority 2023, dated 2026).

Structures are written as SMILES.

The series concerns four strains of Salmonella. The following applies: 5-100 μM.

For `[2H]C1([2H])Oc2ccc(OC3CCN(c4nc5c(cc4C)C(=O)NC5)CC3)cc2OC1([2H])[2H]` [Compound 3, 2-(4-((2,3-dihydrobenzo[b][1,4]dioxin-6-yl-2,2,3,3-d4)oxy)piperidin-1-yl)-3-methyl-6,7-dihydro-5H-pyrrolo[3,4-b]pyridin-5-one], the Ames test result is on record as “clean”.
